## Antibody variant affinities, Ab-95 light chain, assay 2

Binding partner: SARS-CoV-2 spike HR2 peptide, sequence PDVDLGDISGINAS.

Parent: Ab-95, a human scFv built as VH, a (GGGGS)3 linker, VL. Only the CDRs of the light chain vary.
VH: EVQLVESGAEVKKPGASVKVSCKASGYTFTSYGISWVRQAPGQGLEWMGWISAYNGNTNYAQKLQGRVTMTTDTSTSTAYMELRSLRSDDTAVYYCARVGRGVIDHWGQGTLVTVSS
VL: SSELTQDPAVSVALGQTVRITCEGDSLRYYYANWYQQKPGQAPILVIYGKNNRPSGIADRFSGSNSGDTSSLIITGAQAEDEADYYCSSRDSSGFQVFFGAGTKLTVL

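Phage display of a naive human antibody library on the peptide gave the parent. The library (AAYL52) carries one to three amino acid substitutions per variant, with no insertions or deletions. Affinity was read by AlphaSeq, a pooled yeast mating assay with surface-displayed partners. Binding brings cells together so that they mate, and sequencing counts the barcode pairs among the diploids. The ratio of observed to expected reads was calibrated, replicate by replicate, on BCL2-family standards whose Kd was known from biolayer interferometry. The assay was run in three technical replicates.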

Substitutions are numbered in sequence along the VL above, starting at 1 (not Kabat).
Values are log10 of the apparent Kd in nM; lower means stronger binding.
"n.d." marks a missing value. The strain was present, yet no cells mated with the target were sequenced in that replicate, which points to weak or no binding.
Parent in this assay: reference entry 2.31, copy in this library 2.25.

| # | changes | log10 Kd (nM) by replicate | empty controls |
|---|---|---|---|
| 1 | A32E N51V G94N | 3.83 / n.d. / n.d. | 5/9 (3.80) |
| 2 | S26F P54Q F95L | n.d. / n.d. / n.d. | 4/9 (3.72) |
| 3 | A32S N52G S88V | 3.89 / 4.05 / n.d. | 1/9 (3.38) |
| 4 | D25Y A32T V97E | 2.69 / 2.78 / 3.17 | 4/9 (3.92) |
| 5 | Y30T S55H G94W | n.d. / 3.09 / n.d. | 0/9 |
| 6 | P54L S92P | 3.10 / 3.18 / 2.22 | 4/9 (4.26) |
| 7 | D25V Y31T S93C | 2.71 / 2.76 / 2.09 | 5/9 (3.82) |
| 8 | S26Q Y30F R53Q | n.d. / n.d. / n.d. | 3/9 (4.42) |
| 9 | Y29S S93L G94C | 1.90 / 1.90 / 1.48 | 5/9 (4.30) |
| 10 | G24Q | 3.80 / 3.25 / 4.63 | 3/9 (3.88) |
| 11 | L27K N51T S89P | 4.46 / 4.73 / 3.67 | 3/9 (4.26) |
| 12 | E23N A32M G94A | 3.52 / n.d. / n.d. | 4/9 (3.89) |
| 13 | K50W S88W F98V | n.d. / 5.72 / 4.16 | 4/9 (4.08) |
| 14 | G24R N52E Q96S | 3.42 / 3.34 / 3.39 | 4/9 (3.83) |
| 15 | N51R S55E D91M | 4.36 / 5.60 / n.d. | 2/9 (3.79) |
| 16 | S26C R90C F98C | 4.00 / 3.22 / n.d. | 3/9 (3.60) |
| 17 | N33L R90F G94M | n.d. / 4.03 / n.d. | 0/9 |
| 18 | K50W D91V S92L | n.d. / 3.54 / n.d. | 4/9 (3.94) |
| 19 | E23I G24F | n.d. / 3.43 / n.d. | 0/9 |
| 20 | G49A G94A | 3.74 / 3.79 / 2.50 | 4/9 (3.57) |
| 21 | A32P N33H S55G | 4.44 / 4.70 / 4.40 | 5/9 (4.26) |
| 22 | Y29E G49Y F95T | n.d. / n.d. / 4.03 | 3/9 (3.19) |
| 23 | N51S R53I S92E | 2.83 / 2.66 / 3.81 | 2/9 (3.82) |
| 24 | R28Y S89R | 3.24 / 3.08 / 3.37 | 3/9 (4.49) |
| 25 | R28N Y30D N33F | 5.14 / 5.13 / 4.69 | 6/9 (4.42) |
| 26 | Y30W N51T P54G | 3.34 / 4.04 / n.d. | 1/9 (3.19) |
| 27 | G24Q S55V F98P | 1.57 / 1.71 / 0.44 | 2/9 (3.55) |
| 28 | A32N R90W Q96N | n.d. / n.d. / n.d. | 1/9 (3.73) |
| 29 | D25Q D91K F95V | 3.98 / n.d. / n.d. | 4/9 (3.74) |
| 30 | K50A P54E V97H | 3.88 / 3.22 / 3.44 | 6/9 (3.70) |
| 31 | G24V A32G | n.d. / 4.13 / 3.91 | 5/9 (4.09) |
| 32 | R53M S55T G94Q | n.d. / n.d. / n.d. | 1/9 (4.32) |
| 33 | L27Q R28D D91G | 3.91 / 2.79 / 2.42 | 5/9 (3.57) |

The first 4 variants above that were never detected:

| changes | log10 Kd (nM) by replicate | empty controls |
|---|---|---|
| S26F P54Q F95L | n.d. / n.d. / n.d. | 4/9 (3.72) |
| S26Q Y30F R53Q | n.d. / n.d. / n.d. | 3/9 (4.42) |
| A32N R90W Q96N | n.d. / n.d. / n.d. | 1/9 (3.73) |
| R53M S55T G94Q | n.d. / n.d. / n.d. | 1/9 (4.32) |

Background: pairings of library AAYL52 with three empty control strains gave a value in 28% of cases (median 3.91, 5th percentile 2.90). Values in that range, when seen in few replicates, are hard to tell from nonspecific mating. For each scFv, signals with the empty controls are counted beside the result, with their mean in brackets.

Values reported by Engelhart et al. 2022, doi:10.1038/s41597-022-01779-4 (FLAb copy).